Results: ChEMBL document CHEMBL1129945, “New 2-piperazinylbenzimidazole derivatives as 5-HT3 antagonists. Synthesis and pharmacological evaluation” (J Med Chem, 1997)

By UniProt entry, the sequences of proteins in these tests, tags left out.
UniProt P14842, whole entry: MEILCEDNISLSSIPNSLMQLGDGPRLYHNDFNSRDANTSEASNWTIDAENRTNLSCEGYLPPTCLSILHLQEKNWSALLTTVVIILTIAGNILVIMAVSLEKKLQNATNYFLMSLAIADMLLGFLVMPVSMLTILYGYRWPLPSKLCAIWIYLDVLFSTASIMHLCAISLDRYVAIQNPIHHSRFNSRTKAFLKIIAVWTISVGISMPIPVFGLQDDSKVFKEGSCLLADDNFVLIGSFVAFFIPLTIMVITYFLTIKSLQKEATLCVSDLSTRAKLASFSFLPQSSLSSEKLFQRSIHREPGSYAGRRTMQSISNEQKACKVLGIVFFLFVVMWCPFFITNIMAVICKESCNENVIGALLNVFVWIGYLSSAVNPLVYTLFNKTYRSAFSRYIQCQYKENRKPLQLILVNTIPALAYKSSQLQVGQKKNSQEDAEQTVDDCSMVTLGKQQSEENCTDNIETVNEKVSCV

Biological target: 5-hydroxytryptamine receptor 2A (Rattus norvegicus, UniProt P14842)
Assay: Binding affinity was evaluated in vitro by displacement of [3H]ketanserin from 5-hydroxytryptamine 2A receptor on rat cortical membrane
In short: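 Prefrontal cortex membranes from adult male Wistar rats (220-280 g), final dilution 1:60 wt/vol in 50 mM Tris-HCl. Displacer added in Tris-HCl with 10% ethanol. [3H]ketanserin at 0.8 nM final. Nonspecific binding with 1 µM methysergide. Triplicate competition, 10-12 displacer concentrations, two separate experiments. Filtration and scintillation counting. IC50 and Ki calculated.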

Cc1nc2sccn2c(=O)c1CCN1CCC(=C(c2ccc(F)cc2)c2ccc(F)cc2)CC1 [RITANSERIN]
Ki: 0.631 nM
